Reference: paper PMC3823413 (Journal of Cellular and Molecular Medicine, 2008)

Chains of the proteins cited; added tags and fusions are not shown.
UniProt P30542, whole entry: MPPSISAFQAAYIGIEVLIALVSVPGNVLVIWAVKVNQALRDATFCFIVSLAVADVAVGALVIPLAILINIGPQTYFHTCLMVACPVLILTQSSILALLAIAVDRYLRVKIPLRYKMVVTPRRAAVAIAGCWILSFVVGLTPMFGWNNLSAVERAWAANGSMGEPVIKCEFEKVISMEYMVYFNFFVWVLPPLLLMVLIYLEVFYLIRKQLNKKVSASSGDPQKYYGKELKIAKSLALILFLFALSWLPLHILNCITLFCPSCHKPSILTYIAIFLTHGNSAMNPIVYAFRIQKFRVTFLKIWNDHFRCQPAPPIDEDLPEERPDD

Target: A1 receptors (Homo sapiens, UniProt P30542)
Assay: [3H]DPCPX binding to PMN
Conditions: native versus LPS-stimulated PMN; data not shown

## [3H]CCC([3H])n1c(=O)c2[nH]c(C3CCCC3)nc2n(C([3H])CC[3H])c1=O (stereo not shown) [[^3H]DPCPX]
  binding parameters of A1 receptors: no differences between native and LPS-stimulated PMN
